Reference: paper PMC3698492 (Scientific Reports, 2013)

Tested on: Drosophila 5-HT receptor mutant larvae
Assay: Liquid food feeding assay in 5-HT receptor mutant larvae
Format: in vivo, Drosophila melanogaster

In the case of `CSc1ccc2c(c1)C(N1CCN(C)CC1)Cc1ccccc1S2` (stereo not shown) [Metitepine], the “sensitivity to anorectic effect” value (100 μM, 5-HT2A^Gal4 receptor mutants) is reported as “resistant”, the “sensitivity to anorectic effect” value (100 μM, null mutants of 5-HT receptors other than 5-HT2A^Gal4) is reported as “sensitive to metitepine” and the “sensitivity to anorectic effect” value (5-HT2A^PL homozygous mutants) is reported as “insensitive”. For the same compound, the “sensitivity to anorectic effect” value (5-HT2A^e01363 (5-HT2A^e) homozygote) was “sensitive”, the “sensitivity to anorectic effect” value (heteroallelic mutant 5-HT2A^Gal4/PL) was “insensitive” and the “sensitivity to anorectic effect” value (heteroallelic mutant 5-HT2A^Gal4/e) was “insensitive”. For the same compound, the “sensitivity to anorectic effect” value (heterozygous 5-HT2A^Gal4 larvae) was “normal sensitivity”.
